Laboratory results: PMC11277192 (International Journal of Molecular Sciences, 2024)

Sequences of proteins named here, by UniProt entry; tags and fusion partners are left off.
UniProt P34972, whole entry: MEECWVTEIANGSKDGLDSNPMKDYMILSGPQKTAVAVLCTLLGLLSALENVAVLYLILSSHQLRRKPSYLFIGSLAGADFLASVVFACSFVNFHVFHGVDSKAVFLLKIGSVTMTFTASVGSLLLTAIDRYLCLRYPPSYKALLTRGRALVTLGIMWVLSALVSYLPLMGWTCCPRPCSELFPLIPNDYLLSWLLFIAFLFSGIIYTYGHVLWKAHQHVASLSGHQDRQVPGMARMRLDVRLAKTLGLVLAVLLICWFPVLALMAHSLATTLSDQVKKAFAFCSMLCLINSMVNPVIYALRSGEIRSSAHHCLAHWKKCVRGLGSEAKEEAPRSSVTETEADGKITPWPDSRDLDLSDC

Molecular target: T1, CB2 receptor (Homo sapiens, UniProt P34972)
T1 construct: host or cells: CHO-K1 (from the C2 catalogue suffix and 'same protocol' as CB1)
Test: CB2 antagonist cAMP assay (HitHunter cAMP XS+), CP55,940 challenge
Assay type: cell-based
Details: read-out: CB2 antagonist IC50 (not reached within tested concentrations)
Protocol: This observed difference was small but statistically significant (p < 0.0001).
The assay signal was generated through incubation with 20 μL cAMP XS+ ED/CL lysis cocktail for one hour, followed by incubation with 20 μL cAMP XS+ EA reagent for three hours at room temperature.
For the CB1 and CB2 antagonist assays, cells were pre-incubated with antagonists/compounds, followed by an agonist challenge at an ~EC80 concentration. Similar to the agonist assay, before adding the ligands, media were aspirated from cells and replaced with 15 µL 2:1 HBSS/10mM HEPES/cAMP XS+ Ab reagent. […] A total of 5 μL of the solution containing 4× EC80 of (±)-CP 55,940 and 4× EC80 of forskolin was added to the cells (final (±)-CP 55,940 concentration = 1 nM) and incubated at 37 °C for 30 min. The assay signal was generated through incubation with 20 μL cAMP XS+ ED/CL lysis cocktail for one hour, followed by incubation with 20 μL cAMP XS+ EA reagent for three hours at room temperature. A PerkinElmer Envision instrument was used for chemiluminescent signal detection.
More detailed assay protocols are available free of charge on the Eurofins website (Catalog #: 95-0071C2 for CB1 and 95-0183C2 for CB2 [35]).

`C=C(C)[C@@H]1CCC(C)=C[C@H]1c1c(O)cc(CCCCC)cc1O` [CBD, Cannabidiol] was tested, and the IC50 was greater than 12 µM.
